According to US7220575B2, “Melanoma differentiation associated gene-5 and promoter and uses thereof” (priority 2000, dated 2007):

Tests used:
[1] = test system: mda-5 transcription; experiment: Nuclear run-on assays for mda-5 transcription rates in HO-1 melanoma cells; assay type: cell-based, human; details: HO-1 cells treated 4 hr
Protocol: FIGS. 7A–7C. […] A. Northern blot analysis of mda-5. HO-1 melanoma cells were treated with 5 μg/ml actinomycin D 24 hr after incubation with 2,000 U/ml IFN-β or 2,000 U/ml IFN-β+10 ng/ml Mez. Cells were harvested at the indicated time after actinomycin D treatment. Northern hybridization was performed as in Materials and Methods. FIG. 7B. Nuclear run-on assays for determining mda-5 transcription rates. Nuclei were prepared from HO-1 melanoma cells treated with the indicated reagent(s) for 4 hr. Blots were prepared and hybridized as described in Materials and Methods. Abbreviations and concentrations of the indicated reagents are as follows: mda-5 5′ and 3′ fragment of mda-5 cDNA, respectively; ctl, control; Mez, mezerein 10 ng/ml; IFN-β, 2,000 U/ml interferon-β; IFN-β+Mez, 2,000 U/ml interferon-β plus mezerein 10 ng/ml. FIG. 7C. Northern blot analysis of mda-5 expression after blocking protein synthesis by cycloheximide (CHX). RNA samples were extracted from HO-1 melanoma cells pretreated with 50 μg/ml cycloheximide for 30 min and treated with the indicated reagents for 8 hr. Abbreviations and concentrations of indicated reagents are as in FIG. 4.
Northern Blot Analyses and Nuclear Run-On Assays: Total cellular RNA samples were prepared by guanidium isothiocyanate/phenol extraction followed by isopropanol precipitation. […]

[2] = test system: mda-5 expression; experiment: Northern blot analysis of mda-5 expression induced by IFN-β in normal and tumor cell lines; assay type: cell-based; details: additional human melanoma cells, normal and tumor cell lines of diverse origin; 2,000 U/ml, 24 hr
Protocol: FIG. 3. Northern blot analysis of mda-5 expression induced by IFN-β in normal and tumor cell lines. RNA samples were extracted from the indicated cells treated with 2,000 U/ml of interferon-β for 24 hr. Northern hybridization was performed as in Materials and Methods.
Northern Blot Analyses and Nuclear Run-On Assays: Total cellular RNA samples were prepared by guanidium isothiocyanate/phenol extraction followed by isopropanol precipitation. Ten 10 μg of total RNA were resolved in 1% agarose gels with formaldehyde and were transferred to Nylon membranes. EcoRI fragment of mda-5 cDNA (2.5 kb) was labeled with 32P using a multiprime labeling kit (Boehringer Mannheim) and used to probe the transferred membrane. Nuclear run-on assays were performed as previously described ((17) Su et al., 1993, 1999). Probes used for nuclear run-on assays were prepared by RT-PCR and included the mda-5 5′, 9–837 bp; mda-5 3′, 2531–3365 bp; and GAPDH fragment.

[3] = test system: mda-5 promoter; experiment: mda-5 promoter luciferase reporter in HO-1 cells (transient and stable clones); assay type: cell-based, human
Protocol: FIG. 11: Screening of stable human HO-1 melanoma clones for promoter activity of stably integrated mda-5 reporter construct. Transfected HO-1 cells were selected by Puromycin drug selection and individual colonies analyzed for induction of luciferase activity in the presence of IFN-β. Values are expressed as fold change against uninduced values of luciferase activity.
FIG. 12: Induction kinetics of mda-5 promoter activity. Stable clones #20 and #40 were treated with IFN-β and samples were harvested and analyzed for luciferase activity at the times indicated.
FIG. 13: Responsiveness of the mda-5 promoter to IFN-β levels: Stable clones #20 and #40 were treated with IFN-β and samples were harvested and analyzed for luciferase activity 48h after initiation of treatment. The extent of activity was normalized based on equivalent protein content and performed in duplicate for each clone.
FIGS. 14A–14B: Responsiveness of the mda-5 promoter to various inducers: FIG. 14A. HO-1 cells transiently transfected with the mda-5 reporter and treated for 48 h with equivalent units of IFNs α, β and γ and TNF-α and poly IC:IC. The luciferase activity was expressed as fold increase over untreated control cells. FIG. 14B. Clone #40 was treated with equivalent units of the indicated IFNs for 48 h and luciferase activity expressed as fold activation over untreated cells determined.
Having confirmed that induction of Mda-5 mRNA occurred primarily at the transcriptional level, it was decided that regulatory genomic DNA sequences involved in this process should be isolated and characterized. To achieve this goal, a human genomic DNA library constructed in a Bacterial Artificial Chromosome vector (BAC, Genome Systems Inc.) was screened using the mda-5 cDNA as a probe. Two rounds of screening were performed to obtain two overlapping clones that spanned the entire mda-5 genomic locus including several thousand bp of sequence upstream of the translational initiation codon. Mapping of the BAC clone containing the upstream region by restriction enzyme digestion, Southern blotting and sequence analysis permitted the identification of DNA fragments that contained potentially important regulatory sequences, which in the case of most protein coding genes lie upstream of the transcription initiation site. An approximately 7 kb HindIII fragment containing a partial first exon (including the initiator methionine) and approximately 6 kb of upstream sequence (FIG. 10) was subcloned into the HindIII site of the promoterless luciferase reporter vector, pGL3 (Promega). […] To circumvent this problem, a small deletion of DNA sequences containing the mda-5 initiator methionine was carried out using a BstXI restriction digestion (FIG. 10) followed by blunt ending the incompatible end overhangs and recircularization of plasmid by ligation.
The modified mda-5 reporter construct was transfected into parallel sets of HO-1 cells that were treated or not with IFN-β. […] It therefore appeared that the cloned regulatory genomic DNA sequence in the reporter construct contained the elements required for the regulation of the mda-5 gene. It was however, necessary to confirm that the cloned sequences contained all the regulatory elements involved in the transcriptional control of the endogenous cellular gene. […]

[4] = test system: mda-5 expression; experiment: Northern blot analysis of mda-5 expression in early passage human skin fibroblast cells; assay type: cell-based
Protocol: FIGS. 2A–2B. Northern blot analysis of mda-5 expression by various compounds inducing differentiation in HO-1 human melanoma cells. RNA samples were extracted from cells treated as indicated for 24 hr. FIG. 2A. HO-1 human melanoma cells. FIG. 2B. Early passage human skin fibroblast cells. Northern hybridization was performed as in Materials and Methods. Abbreviations and concentration of the indicated reagents are as follows: ctl, control; DMSO, 0.1% dimethyl sulfoxide; EtOH, 0.25% final concentration of ethanol; Mez, mezerein 10 ng/ml; IFN-β, 2,000 U/ml interferon-β; IFN-β+Mez, 2,000 U/ml interferon-β plus mezerein 10 ng/ml; IFN-γ, interferon-γ 100 U/ml; IFN-γ+Mez, interferon-γ 100 U/ml plus mezerein 10 ng/ml; RA, all-trans-retinoic acid 2.5 B5M (dissolved in EtOH): MPA, mycophenolic acid 3 BSM; TPA,12-O-tetradecanoylphorbol-13-acetate 16 nM; cAMP, 3′–5′ cyclic adenosine monophosphate 1 mM; 8-Br-cAMP, 8-bromo-3′–5′ cyclic adenosine monophosphate 1 mM; 8-Br-cAMP, 8-bromo-3′–5′ cyclic adenosine monophosphate 1 mM; MMS, methylmethane sulfonate 10 ng/ml; poly IC 10 μg/ml.
FIGS. 4A–4B. Northern blot analysis of mda-5 expression by ligands for various membrane receptors. RNA samples were extracted from cells treated as indicated for 24 hr. FIG. 4A. HO-1 human melanoma cells. FIG. 4B. Early passage human skin fibroblast cells. Northern hybridization was performed as in Materials and Methods. […]

[5] = test system: mda-5 expression; experiment: Northern blot analysis of mda-5 expression in HO-1 human melanoma cells; assay type: cell-based; details: HO-1 cells
Protocol: FIGS. 2A–2B. Northern blot analysis of mda-5 expression by various compounds inducing differentiation in HO-1 human melanoma cells. RNA samples were extracted from cells treated as indicated for 24 hr. FIG. 2A. HO-1 human melanoma cells. FIG. 2B. Early passage human skin fibroblast cells. Northern hybridization was performed as in Materials and Methods.
FIGS. 4A–4B. Northern blot analysis of mda-5 expression by ligands for various membrane receptors. RNA samples were extracted from cells treated as indicated for 24 hr. FIG. 4A. HO-1 human melanoma cells. FIG. 4B. Early passage human skin fibroblast cells. Northern hybridization was performed as in Materials and Methods.
FIG. 5. Northern blot analysis and time course of mda-5 expression. RNA samples were extracted from HO-1 cells treated with the indicated reagents and harvested at the indicated time after treatment. Northern blotting was performed as in Materials and Methods.
FIGS. 7A–7C. […] A. Northern blot analysis of mda-5. […] Cells were harvested at the indicated time after actinomycin D treatment. Northern hybridization was performed as in Materials and Methods. FIG. 7B. Nuclear run-on assays for determining mda-5 transcription rates. Nuclei were prepared from HO-1 melanoma cells treated with the indicated reagent(s) for 4 hr. Blots were prepared and hybridized as described in Materials and Methods. […] FIG. 7C. […]

B1: IFN-β: recombinant human fibroblast interferon (protein, UniProt P01574 22-187, looked up)
Interferon beta: MSYNLLGFLQRSSNFQCQKLLWQLNGRLEYCLKDRMNFDIPEEIKQLQQFQKEDAALTIYEMLQNIFAIFRQDSSSTGWNETIVENLLANVYHQINHLKTVLEEKLEKEDFTRGKLMSSLHLKRYYGRILHYLKAKEYSHCAWTIVRVEILRNFYFINRLTGYLRN
How did the “mda-5 transcription (nuclear run-on)” value [1] turn out when B1 was run?
Its value is “greatly increased mda-5 transcription”.

And the mda-5 expression [2]?
Its mda-5 expression is “induction of mda-5 expression”.

What about the “responsiveness of mda-5 promoter construct / clones to inducer” value ([3]; HO-1 cells, luciferase) of the same molecule?
The value was “most responsive”.

What about the “induction of luciferase activity in clone #20, initial screen” value ([3]; stable clone #20, much lesser fold activation on subsequent analysis) of the same molecule?
The value was > 1000 fold.

What about the “measurable level detectable by luciferase read out” value ([3]; stable clones #20 and #40, 48h) of the same molecule?
The value was 0.2 U.

And the “induction of luciferase activity in stable HO-1 promoter clones” value ([3]; stable clones, varies between clones)?
Its value is 0–150 fold.

What about the “luciferase activity of modified mda-5 reporter, treated versus untreated controls” value ([3]; transiently transfected HO-1 cells) of the same molecule?
Its value is “around 10 fold”.

What about the mda-5 expression [4] of the same molecule?
Its mda-5 expression is “induce mda-5 expression”.

What about the “mda-5 expression (steady-state mda-5 message level)” value ([5]; treated 24 hr, Northern blot) of the same molecule?
The value was “induce mda-5 expression; also recorded: dramatically increases”.

And the “induction of the endogenous mda-5 gene” value ([5]; Northern blot analyses)?
The value was “around 10 fold”.

“Also recorded” adds a separate entry of the source.
